Experiments:
[1] = target: Opioid receptors; mu & delta (Rattus norvegicus) (UniProt P33533+P33535); experiment: Ratio of Ki value towards delta receptor to that of mu receptor.
[2] = target: Delta-type opioid receptor (Rattus norvegicus) (UniProt P33533); experiment: Potency ratio was evaluated for delta receptor binding
[3] = Ratio of IC50 value using MVD to that of GPI assays.
[4] = Relative potency was determined between the MVD assay and the [3H]DSLET binding assay.
[5] = Relative potency was determined between the GPI assay and the [3H]DAGO binding assay
[6] = target: Mu-type opioid receptor (Rattus norvegicus) (UniProt P33535); experiment: Potency ratio was evaluated for mu receptor binding

Sequences of proteins named here, by UniProt entry; tags and fusion partners are left off.
UniProt P33533, whole entry, looked up: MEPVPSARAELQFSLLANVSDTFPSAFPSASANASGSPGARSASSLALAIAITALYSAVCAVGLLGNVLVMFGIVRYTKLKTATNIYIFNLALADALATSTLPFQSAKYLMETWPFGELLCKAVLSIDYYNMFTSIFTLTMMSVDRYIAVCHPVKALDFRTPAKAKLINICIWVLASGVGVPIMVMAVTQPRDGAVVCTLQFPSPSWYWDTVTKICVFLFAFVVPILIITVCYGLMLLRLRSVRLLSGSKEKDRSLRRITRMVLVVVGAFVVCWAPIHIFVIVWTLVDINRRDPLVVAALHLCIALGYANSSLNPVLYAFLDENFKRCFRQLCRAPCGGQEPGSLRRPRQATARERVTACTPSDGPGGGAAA
UniProt P33535, whole entry, looked up: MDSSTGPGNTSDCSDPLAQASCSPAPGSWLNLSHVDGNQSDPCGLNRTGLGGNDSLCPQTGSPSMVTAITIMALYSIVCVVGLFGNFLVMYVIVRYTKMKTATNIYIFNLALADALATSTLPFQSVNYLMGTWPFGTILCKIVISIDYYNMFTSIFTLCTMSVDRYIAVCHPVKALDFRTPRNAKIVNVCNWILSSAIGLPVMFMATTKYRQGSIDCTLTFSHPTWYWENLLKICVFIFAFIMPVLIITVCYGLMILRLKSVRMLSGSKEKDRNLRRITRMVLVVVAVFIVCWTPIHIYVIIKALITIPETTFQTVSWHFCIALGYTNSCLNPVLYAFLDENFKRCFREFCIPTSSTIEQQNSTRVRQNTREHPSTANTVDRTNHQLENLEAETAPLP

Compound	Selectivity [1]	Potency ratio [2]	Ratio [3]	Relative potency [4]	Relative potency [5]	Potency ratio [6]
NC(=O)[C@@H]1CCC(=O)NCCC[C@H](NC(=O)[C@@H](N)Cc2ccc(O)cc2)C(=O)NCC(=O)N1	2.83	0.00058	> 4.57	< 0.000285	0.0281	0.0053
NC(=O)[C@@H]1CCCCNC(=O)CC[C@H](NC(=O)[C@@H](N)Cc2ccc(O)cc2)C(=O)N[C@@H](Cc2ccccc2)C(=O)N1	49.6	0.0513	12.6	0.113	30.8	9.51
NC(=O)[C@@H]1CCC(=O)NCCCC[C@H](NC(=O)[C@@H](N)Cc2ccc(O)cc2)C(=O)N[C@@H](Cc2ccccc2)C(=O)N1	3.05	0.581	1.78	2.19	84	6.58
NC(=O)[C@@H]1CCCNC(=O)C[C@H](NC(=O)[C@@H](N)Cc2ccc(O)cc2)C(=O)N[C@@H](Cc2ccccc2)C(=O)N[C@H](C(N)=O)CCCNC(=O)C[C@H](NC(=O)[C@@H](N)Cc2ccc(O)cc2)C(=O)N[C@@H](Cc2ccccc2)C(=O)N1	1.5	0.0196	0.499	0.0197	0.212	0.11
CC(C)C[C@H](NC(=O)[C@H](Cc1ccccc1)NC(=O)CNC(=O)CNC(=O)[C@@H](N)Cc1ccc(O)cc1)C(=O)O	–	–	–	1	1	–
CC(C)C[C@@H]1NC(=O)[C@@H](NC(=O)[C@@H](N)Cc2ccc(O)cc2)CCCNC(=O)C[C@@H](C(N)=O)NC1=O	1.2	0.000225	7.47	0.000282	0.0455	0.00138
CCC[C@H](NC(=O)[C@@H](N)Cc1ccccc1)C(=O)N[C@@H](Cc1ccccc1)C(=O)N[C@@H](CC(N)=O)C(N)=O	37.7	0.00574	12.2	0.00516	1.36	0.8
NC(=O)[C@@H]1CCCNC(=O)C[C@H](NC(=O)[C@@H](N)Cc2ccc(O)cc2)C(=O)N[C@@H](Cc2ccccc2)C(=O)N1	137	0.00192	16.4	0.00133	0.471	0.985
NC(=O)[C@@H]1CC(=O)NCCC[C@H](NC(=O)[C@@H](N)Cc2ccc(O)cc2)C(=O)N[C@@H](Cc2ccccc2)C(=O)N[C@H](C(N)=O)CC(=O)NCCC[C@H](NC(=O)[C@@H](N)Cc2ccc(O)cc2)C(=O)N[C@@H](Cc2ccccc2)C(=O)N1	1.65	0.06	0.893	0.115	2.21	0.368
CC(C)[C@H](NC(=O)[C@H](Cc1ccccc1)NC(=O)[C@H](CC(N)=O)NC(=O)[C@@H](N)Cc1ccc(O)cc1)C(N)=O	64.3	0.00092	> 38.6	< 0.0005	0.416	0.22

Source: ChEMBL document CHEMBL1122861, “Synthesis and activity profiles of novel cyclic opioid peptide monomers and dimers” (J Med Chem, 1985)
